From patent publication US20240018206A1 (BEIJING VDJBIO, published 2024)

Assays:
[1] = target: T1, IL-1 receptor (IL-1R1) on A375.s2 cells (UniProt P14778 18-569, limits assumed); assay: cell-based or functional assay
T1 sequence (looked up): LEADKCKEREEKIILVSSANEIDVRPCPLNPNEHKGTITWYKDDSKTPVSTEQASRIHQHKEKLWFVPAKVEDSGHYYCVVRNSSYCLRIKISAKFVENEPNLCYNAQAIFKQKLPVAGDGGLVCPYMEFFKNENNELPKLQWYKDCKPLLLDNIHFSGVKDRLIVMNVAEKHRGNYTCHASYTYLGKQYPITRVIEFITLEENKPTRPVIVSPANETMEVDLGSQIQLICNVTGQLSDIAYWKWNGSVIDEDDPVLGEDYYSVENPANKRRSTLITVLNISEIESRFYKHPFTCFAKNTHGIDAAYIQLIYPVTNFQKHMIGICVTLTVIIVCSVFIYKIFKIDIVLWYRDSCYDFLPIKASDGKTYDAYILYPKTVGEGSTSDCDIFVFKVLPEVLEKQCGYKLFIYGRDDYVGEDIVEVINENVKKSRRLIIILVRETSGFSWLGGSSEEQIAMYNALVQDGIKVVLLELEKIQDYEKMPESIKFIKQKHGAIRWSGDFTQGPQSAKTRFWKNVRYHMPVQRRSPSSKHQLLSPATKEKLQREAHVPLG

[2] = target: T2, IL-1 receptor (IL-1R1), the receptor of the SPR assay (UniProt P14778 18-332, limits assumed); assay: SPR, BIAcore 3000, 25 C, analyte 1.2 to 100 nM
T2 construct: also called fixed receptor
T2 sequence (looked up): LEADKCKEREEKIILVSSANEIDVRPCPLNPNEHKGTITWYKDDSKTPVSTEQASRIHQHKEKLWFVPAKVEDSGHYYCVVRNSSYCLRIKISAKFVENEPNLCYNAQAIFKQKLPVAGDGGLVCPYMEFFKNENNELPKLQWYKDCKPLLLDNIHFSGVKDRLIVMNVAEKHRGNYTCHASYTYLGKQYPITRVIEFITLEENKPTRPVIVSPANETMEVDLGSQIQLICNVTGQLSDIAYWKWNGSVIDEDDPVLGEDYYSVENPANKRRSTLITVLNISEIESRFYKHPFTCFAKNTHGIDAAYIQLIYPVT
Protocol: All SPR measurements are performed on a BIAcore 3000 instrument (GE Biosciences, Piscataway, N.J.). BIAcore software-BIAcore 3000 control software V3.2 is used to operate and control the BIAcore 3000 instrument. SPR data from the BIAcore 3000 instrument are analyzed using evaluation software V4.1, and the data are plotted using Graph Pad Prism software version 5. […] The fusion protein shown is used as a ligand for constructing the reference channel of a chip. The analyte IL-1RN-Fc bound to the fixed receptor is measured, with a concentration of 1.2 to 100 nM (3-fold dilution). Each sample is injected at a flow rate of 30 μL/min for 3 minutes to bind to the fusion protein bound to the chip. Next, the binding buffer without analyte is passed through the chip at the same flow rate to dissociate the bound analyte. 500 s later, the regeneration solution (1M formic acid) is injected to remove the residual binding analyte. The data are analyzed using the Kinetics Guidelines and the manual fitting program attached to BiaEvaluation software V4.1.

IC50(µg/ml), inhibition of IL-1β induced A375.s2 apoptosis (MTS, 490 nM) [1]: 1.38 µg/mL | Kd [2]: 0.097 nM | Relative Affinity [2]: 12.1 fold (reference IL-1RN-Fc) | koff [2]: 1.83e-05 s⁻¹ | kon [2]: 189000 M⁻¹ s⁻¹
B1: IL-1RN R5T D74N-Fc (Fc fusion)
chain: RPSGTKSSKMQAFRIWDVNQKTFYLRNNQLVAGYLQGPNVNLEEKIDVVPIEPHALFLGIHGGKMCLSCVKSGNETRLQLEAVNITDLSENRKQDKRFAFIRSDSGPTTSFESAACPGWFLCTAMEADQPVSLTNMPDEGVMVTKFYFQEDEGGGGSGGGGSGGGGSESKYGPPCPPCPAPEFLGGPSVFLFPPKPKDTLMISRTPEVTCVVVDVSQEDPEVQFNWYVDGVEVHNAKTKPREEQFNSTYRVVSVLTVLHQDWLNGKEYKCKVSNKGLPSSIEKTISKAKGQPREPQVYTLPPSQEEMTKNQVSLTCLVKGFYPSDIAVEWESNGQPENNYKTTPPVLDSDGSFFLYSRLTVDKSRWQEGNVFSCSVMHEALHNHYTQKSLSLSLGK

IC50(µg/ml), inhibition of IL-1β induced A375.s2 apoptosis (MTS, 490 nM) [1]: 1.45 µg/mL | Kd [2]: 0.107 nM | Relative Affinity [2]: 11 fold (reference IL-1RN-Fc) | koff [2]: 1.98e-05 s⁻¹ | kon [2]: 185000 M⁻¹ s⁻¹
B2: IL-1RN R14T D74N-Fc (Fc fusion)
chain: B1 chain with T5R, R14T

IC50(µg/ml), inhibition of IL-1β induced A375.s2 apoptosis (MTS, 490 nM) [1]: 2.67 µg/mL | Kd [2]: 0.476 nM | Relative Affinity [2]: 2.5 fold (reference IL-1RN-Fc) | koff [2]: 8.05e-05 s⁻¹ | kon [2]: 169000 M⁻¹ s⁻¹
B3: IL-1RN R14T-Fc (Fc fusion)
chain: B1 chain with T5R, R14T, N74D

IC50(µg/ml), inhibition of IL-1β induced A375.s2 apoptosis (MTS, 490 nM) [1]: 3.5 µg/mL | Kd [2]: 0.26 nM | Relative Affinity [2]: 4.5 fold (reference IL-1RN-Fc) | koff [2]: 4.65e-05 s⁻¹ | kon [2]: 179000 M⁻¹ s⁻¹
B4: IL-1RN R5T R14T-Fc (Fc fusion)
chain: B1 chain with R14T, N74D

IC50(µg/ml), inhibition of IL-1β induced A375.s2 apoptosis (MTS, 490 nM) [1]: 3.08 µg/mL | Kd [2]: 0.334 nM | Relative Affinity [2]: 3.5 fold (reference IL-1RN-Fc) | koff [2]: 5.75e-05 s⁻¹ | kon [2]: 172000 M⁻¹ s⁻¹
B5: IL-1RN R5T-Fc (Fc fusion)
chain: B1 chain with N74D

Changes are numbered by the printed parent chain. Numbers in names are those of the source. One block for each binder: values may come before it.
